Test results as given in PMC7007424 (Neurotherapeutics, 2019).
Marks after values point to notes of the source that are not given here.

Protein sequences, listed by entry. Tags and fused reporters are not part of them.
UniProt P08684, whole entry: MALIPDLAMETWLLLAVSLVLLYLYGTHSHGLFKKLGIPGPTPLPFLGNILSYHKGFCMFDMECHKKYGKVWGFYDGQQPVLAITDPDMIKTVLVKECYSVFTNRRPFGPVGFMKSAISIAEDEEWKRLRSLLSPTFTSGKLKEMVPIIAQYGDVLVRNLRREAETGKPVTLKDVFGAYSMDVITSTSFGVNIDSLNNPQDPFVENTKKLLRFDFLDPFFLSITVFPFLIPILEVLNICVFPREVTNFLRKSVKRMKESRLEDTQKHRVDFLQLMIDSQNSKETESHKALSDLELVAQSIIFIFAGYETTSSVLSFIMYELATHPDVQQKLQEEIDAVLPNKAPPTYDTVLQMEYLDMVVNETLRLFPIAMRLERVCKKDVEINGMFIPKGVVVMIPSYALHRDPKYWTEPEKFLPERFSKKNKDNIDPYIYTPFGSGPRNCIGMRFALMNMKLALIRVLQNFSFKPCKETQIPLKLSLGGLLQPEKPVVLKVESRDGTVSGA

How the values were obtained:
[1] = biological target: CYP3A4 (Homo sapiens, UniProt P08684); conditions: 10 μM
[2] = in vitro; conditions: PAMPA

Papp [2] | SMILES | CYP3A4 activity [1]
– | CC(C(=O)NCc1ccccc1)N1C(=O)CCC1=O (centres unmarked) [AS-1] | 96.9 ± 0.4^a Percentage of control
0.56 ± 0.01 ×10⁻⁶ cm/s | CCn1cc(C(=O)O)c(=O)c2cc(F)c(N3CCNCC3)cc21 [NFX, norfloxacin, reference compound] | –
